The structures appear in SMILES notation.

The chains behind the UniProt entries cited, without tags or fusion partners.
UniProt P23977, whole entry: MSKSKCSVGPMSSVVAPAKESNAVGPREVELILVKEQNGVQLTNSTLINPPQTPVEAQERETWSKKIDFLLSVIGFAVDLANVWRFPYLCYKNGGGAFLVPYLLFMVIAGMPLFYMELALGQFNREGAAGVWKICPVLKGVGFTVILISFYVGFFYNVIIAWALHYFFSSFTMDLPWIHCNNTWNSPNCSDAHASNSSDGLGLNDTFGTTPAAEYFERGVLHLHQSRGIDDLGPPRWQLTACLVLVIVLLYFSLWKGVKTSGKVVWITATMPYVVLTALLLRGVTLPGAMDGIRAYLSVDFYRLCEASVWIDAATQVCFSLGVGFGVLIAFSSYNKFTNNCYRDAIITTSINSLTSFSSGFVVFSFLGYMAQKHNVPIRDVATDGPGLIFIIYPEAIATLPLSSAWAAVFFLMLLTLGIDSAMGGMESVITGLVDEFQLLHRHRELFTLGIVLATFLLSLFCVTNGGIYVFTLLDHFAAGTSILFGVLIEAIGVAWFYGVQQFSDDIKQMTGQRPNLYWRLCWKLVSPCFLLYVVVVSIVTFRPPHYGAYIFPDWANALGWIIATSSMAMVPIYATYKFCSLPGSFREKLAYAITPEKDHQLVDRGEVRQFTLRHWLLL

In patent publication US20070282007A1, “TREATMENT OF PAIN DISORDERS WITH trans 4-(3,4-DICHLOROPHENYL)-1,2,3,4-TETRAHYDRO-1-NAPHTHALENAMINE AND ITS FORMAMIDE” (SEPRACOR INC., priority 2006, published 2007) one finds IC50 data, which are given here for 1 compound.

The target in this assay is Dopamine (DA) uptake (Rattus norvegicus, UniProt P23977). Briefly: biochemical.

As for `CN(C)CCCC1(c2ccc(F)cc2)OCc2cc(C#N)ccc21` (stereo not shown) [Citalopram], half-maximal inhibition (IC50) required 17 µM.
